Values of other authors in patent publication US5696093A (CRC for Biopharmaceutical Research Pty Limited, priority 1994, dated 1997).

Protein sequences, listed by entry. Tags and fused reporters are not part of them.
UniProt P25929, whole entry: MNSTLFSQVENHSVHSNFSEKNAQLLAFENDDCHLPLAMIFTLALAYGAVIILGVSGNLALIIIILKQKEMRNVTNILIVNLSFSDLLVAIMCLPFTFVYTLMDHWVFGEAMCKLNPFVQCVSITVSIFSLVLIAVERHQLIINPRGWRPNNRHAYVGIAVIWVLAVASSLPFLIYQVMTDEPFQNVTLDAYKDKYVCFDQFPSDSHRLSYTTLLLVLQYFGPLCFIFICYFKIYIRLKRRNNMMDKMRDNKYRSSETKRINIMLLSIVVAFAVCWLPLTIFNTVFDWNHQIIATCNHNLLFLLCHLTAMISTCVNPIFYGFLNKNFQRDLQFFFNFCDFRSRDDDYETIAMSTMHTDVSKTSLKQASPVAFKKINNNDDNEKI

Target: neuropeptide Y Y1 receptor (Homo sapiens, UniProt P25929)
Set-up: expressed in transfected cells; host or cells: CHO cells, calcium phosphate transfection, cDNA NEO expression vector (Invitrogen)
Details: Herzog et al, 1992; cited from earlier work

## [Leu^31, Pro^34 ] neuropeptide Y [[Leu^31, Pro^34] NPY]
  increase in cytosolic calcium via cloned Y1 receptor, earlier study: stimulate increases in cytosolic calcium levels
